US20020013362A1 (priority 2000, published 2002)

System: patients with melanoma
Conditions: 17 patients

CC(=O)O[C@H]1C(=O)[C@@]2(C)[C@H]([C@H](OC(=O)c3ccccc3)[C@]3(O)C[C@H](OC(=O)[C@H](O)[C@@H](NC(=O)c4ccccc4)c4ccccc4)C(C)=C1C3(C)C)[C@]1(OC(C)=O)CO[C@@H]1C[C@@H]2O [paclitaxel]
Grade 3 sensory changes (objective sensory loss or paresthesias interfering with function) (90 mg/M^2 Q4 days x3): 1 patient
Grade 4 toxicity, number of times (90 mg/M^2 Q4 days x3 (270 mg/M^2 q 21 days)): 7 times
